Experimental data published in US7173041B2, “Polyglutamic acid-camptothecin conjugates and methods of preparation” (priority 2000, dated 2007).

Experiment: Aqueous solubility of PG-camptothecin conjugates
Conditions: % CPT in conjugate (w/w): PG-CPT 14, PG-gly-CPT 37, PG-(10-OAc-CPT) 13, PG-(10-O-CPT) 13, PG-gly-(10-O-CPT) 20, PG-(10-OH-CPT) 19, PG-(9-NH-CPT) 14

## PG-CPT
  Aqueous solubility: 11 mg/mL
